Experimental data as given in ChEMBL document CHEMBL4325855 (Eur J Med Chem, 2019).

Chains of the proteins cited; added tags and fusions are not shown. Lines headed by an entry give the natural chain unless they say otherwise; changes in a name come on top.
UniProt P45983: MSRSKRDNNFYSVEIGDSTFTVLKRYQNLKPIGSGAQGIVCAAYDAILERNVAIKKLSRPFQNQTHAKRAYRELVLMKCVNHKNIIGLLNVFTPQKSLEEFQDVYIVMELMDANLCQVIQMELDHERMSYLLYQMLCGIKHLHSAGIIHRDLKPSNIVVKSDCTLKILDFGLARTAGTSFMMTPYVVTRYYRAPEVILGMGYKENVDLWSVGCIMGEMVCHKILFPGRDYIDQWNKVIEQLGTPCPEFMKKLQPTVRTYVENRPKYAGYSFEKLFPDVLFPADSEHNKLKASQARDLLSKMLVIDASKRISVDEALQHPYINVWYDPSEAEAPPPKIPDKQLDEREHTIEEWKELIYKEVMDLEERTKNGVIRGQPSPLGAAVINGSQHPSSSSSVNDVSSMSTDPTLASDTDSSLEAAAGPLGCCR
UniProt P53779: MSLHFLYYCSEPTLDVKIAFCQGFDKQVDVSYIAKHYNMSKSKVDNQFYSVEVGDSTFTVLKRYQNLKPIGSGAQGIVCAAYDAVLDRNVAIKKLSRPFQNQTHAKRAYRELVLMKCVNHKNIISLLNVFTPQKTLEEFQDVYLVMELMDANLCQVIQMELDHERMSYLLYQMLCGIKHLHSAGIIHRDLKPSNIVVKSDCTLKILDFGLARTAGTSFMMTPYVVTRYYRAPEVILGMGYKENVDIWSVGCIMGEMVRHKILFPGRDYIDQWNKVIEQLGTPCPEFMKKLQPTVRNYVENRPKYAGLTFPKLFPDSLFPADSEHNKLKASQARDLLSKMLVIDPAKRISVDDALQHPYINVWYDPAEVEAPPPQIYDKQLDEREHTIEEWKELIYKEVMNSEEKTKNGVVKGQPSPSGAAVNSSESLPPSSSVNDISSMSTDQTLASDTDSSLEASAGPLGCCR

Columns and labels:
Format in all cases: cell-based
[1] = biological target: T1, c-Jun N-terminal kinase, JNK (Homo sapiens, UniProt P45983+P53779+P45984); assay: Inhibition of JNK in human THP1-Blue cells assessed as reduction in LPS-induced NFkappaB/AP1 activation at <40 uM preincubated for 30 mins followed by LPS-stimulation and measured after 24 hrs by quanti-blue staining based alkaline phosphatase reporter gene assay
Procedure, shortened: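 THP-1Blue monocytes carry a secreted alkaline phosphatase reporter under an NF-κB/AP-1-inducible promoter and were grown in RPMI 1640 with 10% FBS plus Zeocin and blasticidin selection. Cells, 2 × 10^5/well, were pretreated 30 min with compound or DMSO, then given 250 ng/ml LPS for 24 h. Supernatant phosphatase was read with QUANTI-Blue at 655 nm against LPS controls; IC50 calculated.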

[2] = biological target: T1, c-Jun N-terminal kinase, JNK; assay: Inhibition of JNK in human MONO-MAC-6 cells assessed as reduction in LPS-induced IL6 production at <40 uM preincubated for 30 mins followed by LPS-stimulation and measured after 24 hrs by ELISA
Procedure, shortened: (§1)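 MonoMac-6 cells, 2 × 10^5/well in medium with 3% endotoxin-free FBS, were pretreated 30 min with compound or DMSO, then stimulated with 250 ng/ml LPS for 24 h. IL-6 in the supernatant was measured by human IL-6 ELISA. IC50 came from percent inhibition vs log concentration (at least five points); triplicate samples, representative of three experiments.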

[3] = biological target: Mitogen-activated protein kinase 9 (Homo sapiens, UniProt P45984); assay: Binding affinity to human full-length JNK2 (M1 to Q382 residues) expressed in HEK293 cells measured after 1 hr by Kinomescan method
Procedure, shortened: (§2)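 Competition binding on a phage-display/cell-expressed kinase platform; each compound incubated with kinase 1 h at room temperature. Unbound kinase was captured on an immobilized affinity ligand and quantified by qPCR. N.A. means no inhibition below 40 µM.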

[4] = biological target: Mitogen-activated protein kinase 10 (Homo sapiens, UniProt P53779); assay: Binding affinity to human partial length JNK3 (V28 to Q422 residues) expressed in HEK293 cells measured after 1 hr by Kinomescan method; procedure, shortened: as §2
[5] = biological target: T1, c-Jun N-terminal kinase, JNK; assay: Inhibition of JNK in human MONO-MAC-6 cells assessed as reduction in LPS-induced IL6 production preincubated for 30 mins followed by LPS-stimulation and measured after 24 hrs by ELISA; procedure, shortened: as §1
[6] = biological target: Mitogen-activated protein kinase 8 (Homo sapiens, UniProt P45983); assay: Binding affinity to human full-length JNK1 (M1 to Q384 residues) expressed in HEK293 cells measured after 1 hr by Kinomescan method; procedure, shortened: as §2
[7] = biological target: T1, c-Jun N-terminal kinase, JNK; assay: Inhibition of JNK in human THP1-Blue cells assessed as reduction in LPS-induced NFkappaB/AP1 activation preincubated for 30 mins followed by LPS-stimulation and measured after 24 hrs by quanti-blue staining based alkaline phosphatase reporter gene assay

Kd [3] [nM] | Kd [4] [nM] | IC50 [5] [nM] | Kd [6] [nM] | IC50 [7] [nM] | SMILES | inhibition [1] | inhibition [2]
– | – | – | – | – | O=C1c2ccccc2-n2c1nc1ccccc1c2=O [TRYPTANTHRIN] | inactive | inactive
360 | 100 | 3800 | 240 | 2300 | O/N=C1\c2ccccc2-c2nc3ccccc3nc21 | – | –
– | 22 | – | – | – | O=C1c2ccccc2-c2n[nH]c3cccc1c23 | – | –

Activity calls are given as the source filed them. The calls are words filed in the database; no cut-off is given here.
